# Earlier results, collected in paper PMC4518026 (Journal of controlled release : official journal of the …, 2014).
# Assays:
# hindlimb ischemia = settings: mouse, in vivo; cited from earlier work
# [1] = mice; ref [19]; cited from earlier work
substance,measurement,setting,value
vascular endothelial growth factor [VEGF],"vascular effect of bolus VEGF, in words",hindlimb ischemia,leaky and aberrant vessels and off-target effects
same,in vivo circulating half-life,[1],three
